Type in all cases: cell-based
Assay [1] concerns the target T1, Muscarinic acetylcholine receptor M2 (Homo sapiens, UniProt P08172). In words: Displacement of 4-(2-((1E,3E)-5-((E)-1-(6-((3,5-Bis((2-(3-(1-(4-(1-(2-oxo-2-(11-oxo-10,11-dihydro-5H-dibenzo[b,e][1,4]diazepin-5-yl)ethyl)piperidin-4-yl)butyl)-1H-imidazol-4-yl)propanamido)ethyl)carbamoyl)benzyl)amino)-6-oxohexyl)-3,3-dimethyl-5-sulfoindolin-2-ylidene)penta-1,3-dien-1-yl)-3,3-dimethyl-3H-indol-1-ium-1-yl)butane-1-sulfonate Tris(hydrotrifluoroacetate) fluorescent tracer from human muscarinic M2 receptor expressed in […] cells measured after 60 mins by Hoechst H33342 dye based confocal plate reader assay.

Chains of the proteins cited; added tags and fusions are not shown.
UniProt P08172, whole entry: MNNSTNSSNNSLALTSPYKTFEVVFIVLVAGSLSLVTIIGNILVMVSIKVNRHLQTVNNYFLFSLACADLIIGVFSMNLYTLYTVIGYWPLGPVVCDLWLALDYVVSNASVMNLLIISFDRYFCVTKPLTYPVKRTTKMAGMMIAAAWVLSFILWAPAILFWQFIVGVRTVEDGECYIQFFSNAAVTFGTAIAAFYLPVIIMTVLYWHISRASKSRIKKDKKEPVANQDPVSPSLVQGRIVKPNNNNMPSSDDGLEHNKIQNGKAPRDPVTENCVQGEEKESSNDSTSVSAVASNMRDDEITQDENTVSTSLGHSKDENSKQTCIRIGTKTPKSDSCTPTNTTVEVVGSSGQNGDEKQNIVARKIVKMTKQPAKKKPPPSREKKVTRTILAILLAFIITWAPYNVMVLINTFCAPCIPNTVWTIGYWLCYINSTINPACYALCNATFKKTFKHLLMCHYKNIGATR

Assay [2] concerns the target T1, Muscarinic acetylcholine receptor M2. The assay is described as follows: Displacement of 4-(2-((1E,3E)-5-((E)-3,3-Dimethyl-1-(6-oxo-6-((2-(3-(1-(4-(1-(2-oxo-2-(11-oxo-10,11-dihydro-5H-dibenzo[b,e][1,4]diazepin-5-yl)ethyl)piperidin-4-yl)butyl)-1H-imidazol-4-yl)propanamido)ethyl)-amino)hexyl)-5-sulfoindolin-2-ylidene)penta-1,3-dien-1-yl)-3,3-dimethyl-3H-indol-1-ium-1-yl)butane-1-sulfonateHydrotrifluoroacetate fluorescent tracer from human muscarinic M2 receptor expressed in […] cells measured after 60 mins by Hoechst H33342 dye based confocal plate reader assay.

Assay [3] has the same target. In words: Displacement of 4-(2-((1E,3E)-5-((E)-3,3-Dimethyl-1-(6-oxo-6-((2-(4-(4-(1-(2-oxo-2-(11-oxo-10,11-dihydro-5H-dibenzo[b,e][1,4]diazepin-5-yl)ethyl)piperidin-4-yl)butyl)piperazin-1-yl)ethyl)amino)hexyl)-5-sulfoindolin-2-ylidene)penta-1,3-dien-1-yl)-3,3-dimethyl-3H-indol-1-ium-1-yl)butane-1-sulfonate Bis(hydrotrifluoroacetate) fluorescent tracer from human muscarinic M2 receptor expressed in CHO-K9 cells by FACSCalibur flow cytometry. (In general: A flow cytometer gives signals particle by particle.)

The target is the same in assay [4]. In words: Displacement of 4-(2-((1E,3E)-5-((E)-3,3-Dimethyl-1-(6-oxo-6-((2-(4-(4-(1-(2-oxo-2-(11-oxo-10,11-dihydro-5H-dibenzo[b,e][1,4]diazepin-5-yl)ethyl)piperidin-4-yl)butyl)piperazin-1-yl)ethyl)amino)hexyl)indolin-2-ylidene)penta-1,3-dien-1-yl)-3,3-dimethyl-3H-indol-1-ium-1-yl)butane-1-sulfonate Tris(hydrotrifluoroacetate fluorescent tracer from human muscarinic M2 receptor expressed in CHO-K9 cells measured after 60 mins by Hoechst H33342 dye based confocal plate reader assay.

For assay [5] the target is unchanged. In words: Displacement of [3H]-NMS from human muscarinic M2 receptor expressed in CHO-K9 cells measured after 60 mins by Hoechst H33342 dye based confocal plate reader assay. On the technique in general: Displacement assays read how much labelled ligand stays bound in the presence of the test substance.
For assay [6] the target is unchanged. The assay is described as follows: Displacement of 4-(2-((1E,3E)-5-((E)-3,3-Dimethyl-1-(6-oxo-6-((2-(4-(4-(1-(2-oxo-2-(11-oxo-10,11-dihydro-5H-dibenzo[b,e][1,4]diazepin-5-yl)ethyl)piperidin-4-yl)butyl)piperazin-1-yl)ethyl)amino)hexyl)-5-sulfoindolin-2-ylidene)penta-1,3-dien-1-yl)-3,3-dimethyl-3H-indol-1-ium-1-yl)butane-1-sulfonate Bis(hydrotrifluoroacetate) fluorescent tracer from human muscarinic M2 receptor expressed in […] cells measured after 60 mins by Hoechst H33342 dye based confocal plate reader assay.

The values below come from ChEMBL document CHEMBL4602702, “Red-Emitting Dibenzodiazepinone Derivatives as Fluorescent Dualsteric Probes for the Muscarinic Acetylcholine M2 Receptor” (J Med Chem, 2020).

What is called Ki is a measure of affinity in units of concentration, obtained from inhibition or displacement. A low value points to a stronger hold on the target.

The structures appear in SMILES notation.

For `CCCCCCOc1nsnc1C1=CCCN(C)C1` [XANOMELINE], the Ki in assay [1] was 275 nM; in assay [2] it was 324 nM; in assay [3], 214 nM; in assay [4], 724 nM; in assay [5] it was 200 nM; in assay [6], 380 nM.
